A short description of the series: Rat blood exchange model, safety in vivo (general symptoms, weight change, blood biochemical values). The arrangement: species or system Crj: Wistar male rats. To be noted: rats, 20% blood exchange; until 7 days after the blood exchange; comparison among groups. The protocol:
A rat blood exchange model was used for rHSA-FecycP obtained in Example 1, and safety of rHSA-FecycP in vivo was evaluated by weight change and blood biochemical values as indices.
rHSA-FecycP obtained in Example 1 was used as a test substance, and recombinant human serum albumin (25% preparation, available from BIPHA CORPORATION, hereinafter, referred to as rHSA) was used as a control substance. The test substance was oxygenated, stored at 4° C., and used within 8 hours after the oxygenation. 25% rHSA was diluted five times with physiological saline (Otsuka normal saline, available from Otsuka Pharmaceutical Factory, Inc.) and prepared into an administration liquid of concentration of 5% in use.
Crj: Wistar male rats (7 week old) were purchased from Charles River Japan, Inc., and 36 well-grown rats were subjected to a blood exchange test. The rats were classified into three groups of a control group (no blood exchange performed), an rHSA group (blood exchange performed by using rHSA), and a cyc group (blood exchange performed by using rHSA-FecycP) with 12 rats for each group. […]
Weight of each rat was measured before the blood exchange, and 1 day, 3 days, and 7 days after the completion of the blood exchange. […]
AST, ALT, LDH, LAP, CRN, and BUN in plasma were quantitatively determined. […]

For “rHSA: recombinant human serum albumin (25% preparation, BIPHA CORPORATION), control substance, diluted to 5%”, the change in weight entry is on record as “no significant difference”.

Values taken from US20060166861A1, “Inclusion compound of porphyrin metal complex and albumin” (priority 2005, published 2006).
